Data taken from ChEMBL document CHEMBL3526130, “An evaluation of using rat-derived single-dose neuropharmacokinetic parameters to project accurately large animal unbound brain drug concentrations” (Drug Metab Dispos, 2012).

Tested on: Nucleic Acid
Assay: Ratio of drug level in cerebrospinal fluid to unbound plasma concentration in Sprague-Dawley rat at 10 mg/kg, sc by LC-MS/MS analysis
Type: ADME, organism-based
Design: dose 10 mg/kg, route subcutaneous
Settings: in vivo

Ratio: 1.21
SMILES: CN(C)CCCC1(c2ccc(F)cc2)OCc2cc(C#N)ccc21 (racemic) [CITALOPRAM]
